AlphaSeq binding of Ab-14 heavy chain variants to a spike HR2 peptide

Source: Li et al. 2023 (doi:10.1038/s41467-023-39022-2), MIT Lincoln Laboratory and A-Alpha Bio; data file from the FLAb repository.

Antigen: PDVDLGDISGINAS, a 14-residue peptide of the SARS-CoV-2 spike HR2 region.

The variants keep the light chain, the linker and the frameworks of Ab-14 (scFv order VH, the linker GGGGSGGGGSGGGGS, VL).
VH: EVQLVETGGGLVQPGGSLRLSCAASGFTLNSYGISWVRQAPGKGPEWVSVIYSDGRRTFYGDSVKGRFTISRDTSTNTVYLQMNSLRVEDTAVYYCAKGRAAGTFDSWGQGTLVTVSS
VL: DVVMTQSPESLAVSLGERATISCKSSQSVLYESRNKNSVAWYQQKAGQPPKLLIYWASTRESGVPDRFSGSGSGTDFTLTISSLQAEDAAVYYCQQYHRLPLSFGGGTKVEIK

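The variants were designed computationally from a first round of random CDR variants and then made and measured. Their group label is 14H_En_HC (En: ensemble of fine-tuned language models; HC: hill climbing; a sequence that several methods proposed may carry one label only). The assay is AlphaSeq: two haploid yeast populations carry antibody and antigen on their surface. Binding brings cells together so that they mate, and sequencing counts the barcode pairs among the diploids. Scores were corrected for input abundance and mapped to Kd with protein pairs of known affinity run in the same pool. There are six technical replicates.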

Each variant is given by its three heavy chain CDRs, as the data file delimits them; those of the parent are GFTLNSYGIS, VIYSDGRRTFYGDSVK, GRAAGTFDS. Affinities are written as log10 Kd with Kd in nM; a lower number is a better binder. "nd" means that the variant was in the library but no mating with the target was seen in that replicate; the authors take this as a sign of poor binding, and no number exists. A sequence measured in both rounds can read differently, since the two assays cover different ranges. Empty control strains, which show no peptide, gave a signal in 1% of pairings with all heavy chain designs; the median was 2.08 and 95% of these signals were weaker than 0.84. No background was subtracted. Also given: how often the same scFv was detected with the empty control strains, with their mean in brackets. The authors' rule: three or more of the six replicates give a measured affinity, fewer mean a poor binder. The parent sequence was in this pool as ten entries: three were never detected, three once, and four in most replicates, with averages from 0.34 to 2.37.

| # | CDR-H1 | CDR-H2 | CDR-H3 | replicates, log10 nM | empty controls |
|---|---|---|---|---|---|
| 1 | GFDLNEYGIS | VIYADGMRTQYADSVK | GEQAGTFDL | nd 0.30 -0.02 0.30 nd 0.10 | 0 of 18 |
| 2 | GFDLDEYGIS | VIYADGRRTFYTDSVK | GQNAGTFDV | -0.03 -0.24 -0.46 -0.34 -0.35 -0.15 | 0 of 18 |
| 3 | GFDLNEYGIS | VIYADGMRTAYIDSVK | GEQAGTFDV | 0.42 0.70 0.77 0.78 0.58 1.08 | 0 of 18 |
| 4 | GFDLNEYGIS | VIYADGMRTHYTDSVK | GNNAGTFDS | 0.08 -0.01 0.04 -0.20 -0.13 -0.01 | 0 of 18 |
| 5 | GFDLDEYGIS | VIYADGRRTFYADSVK | GNSAGTFDS | -0.24 -0.32 -0.86 -0.49 0.05 -0.51 | 0 of 18 |
| 6 | GFQLDEYGIS | VIYADGRRTFYADSVK | GEVAGTFDS | -0.48 -0.53 -0.59 -0.34 -0.60 -0.27 | 0 of 18 |
| 7 | GFDLNEYGIS | VIYADGRRTAYSDSVK | GHAAGTFDS | -0.08 0.00 -0.47 -0.69 -0.09 -0.16 | 1 of 18 (3.46) |
| 8 | GFDLEDYGIS | VIYADGMRTFYADSVK | GNVAGTFDV | -0.06 0.51 -0.16 -0.15 0.32 0.63 | 0 of 18 |
| 9 | GFDLEEYGIS | VIYADGMRTFYTDSVK | GEVAGTFDV | -0.19 nd -0.27 -1.19 -0.21 0.87 | 0 of 18 |
| 10 | GFNLNEYGIS | VIYADGMRTFYADSVK | GQIAGTFIV | nd 1.57 -0.30 0.51 1.19 1.33 | 0 of 18 |
| 11 | GFDINEYGIS | VIYADGRRTFYADSVK | GQTAGTFDT | -0.17 -0.45 -0.74 -0.99 -1.08 -0.38 | 0 of 18 |
| 12 | GFDLNEYGIS | VIYADGRRTFYSDSVK | GNLAGTFDV | nd nd nd nd nd nd | 0 of 18 |
| 13 | GFDLNEYGIS | VIYADGQRTAYADSVK | GEVAGTFDS | 0.17 -0.63 -0.56 -0.57 -0.69 -0.02 | 0 of 18 |
| 14 | GFNLNEYGIS | VIYADGRRTFYADNVK | GNVAGTFDQ | -0.23 -0.33 -0.37 -0.52 -0.72 -0.41 | 0 of 18 |
| 15 | GFDLNEYGIS | VIYADGMRTGYADSVK | GQNAGTFDF | nd nd 1.25 0.13 1.38 0.38 | 0 of 18 |
| 16 | GFDLNEYGIS | VIYADGRRTAYTDSVK | GNAAGTFDV | -0.35 -0.50 -0.48 -0.56 -0.42 0.33 | 0 of 18 |
| 17 | GFDLNEYGIS | VIYADGFRTSYTDSVK | GEVAGTFDS | -0.21 -0.22 -0.37 -0.19 -0.38 0.01 | 0 of 18 |
| 18 | GFDLNEYGIS | VIYADGLRTFYTDSVK | GEMAGTFDV | -0.26 -0.50 -0.54 -1.03 -0.65 0.10 | 0 of 18 |
| 19 | GFDLDEYGIS | VIYADGRRTFYQDSVK | GNVAGTFDM | -0.15 -0.06 -0.43 -0.25 -0.36 -0.21 | 0 of 18 |
| 20 | GFDLNEYGIS | VIYADGRRTFYTDSVK | GQTAGTFDV | 0.16 -0.46 -0.60 0.08 -0.38 -0.37 | 0 of 18 |
| 21 | GFDLNEYGIS | VIYADGRRTFYADSVK | GKNAGTFDQ | -0.50 -0.55 -0.56 -0.82 -0.79 -0.53 | 1 of 18 (3.42) |
| 22 | GFDLNEYGIS | VIYADGRRTFYADSVK | GNNAGTFNN | -0.62 -0.64 -0.65 -0.90 -0.89 -0.68 | 1 of 18 (2.48) |
| 23 | GFDLDEYGIS | VIYADGRRTFYADSVK | GELAGTFDS | -0.49 -0.68 -0.68 -0.76 -0.68 -0.54 | 0 of 18 |
| 24 | GFDLEDYGIS | VIYADGRRTFYSDSVK | GEIAGTFDV | -0.05 -0.58 -0.16 -0.77 -0.60 -0.32 | 0 of 18 |
| 25 | GFNLNEYGIS | VIYADGRRKAYADSVK | GNTAGTFDV | -0.67 0.05 -1.08 -0.79 -0.99 -0.72 | 0 of 18 |
| 26 | GFNLNEYGIS | VIYADGRRTFYSDSVK | GEAAGTFDA | 0.27 0.17 -0.43 -0.38 -0.41 0.01 | 0 of 18 |
| 27 | GFDLDEYGIS | VIYADGVRTAYTDSVK | GGNAGTFDV | -0.48 -0.24 -0.31 -0.60 -0.40 0.04 | 0 of 18 |
| 28 | GFDINEYGIS | VIYADGRRTFYADSVK | GQTAGTFDV | -0.26 -0.25 -0.41 0.40 -0.20 -1.08 | 0 of 18 |
| 29 | GFDLNEYGIS | VIYADGMRTAYTDSVK | GNEAGTFDT | -1.42 -0.47 -0.83 -1.62 -1.26 -1.51 | 0 of 18 |
| 30 | GFDLDEYGIS | VIYADGRRTFYADSVK | GQAAGTFDQ | 0.01 -0.24 -0.36 0.05 0.05 -0.12 | 1 of 18 (2.47) |
| 31 | GFDLNEYGIS | VIYADGQRTFYIDSVK | GEIAGTFDV | -0.32 -1.05 -1.34 -1.16 -1.23 -0.21 | 0 of 18 |
| 32 | GFDLNEYGIS | VIYADGRRTFYTDSVK | GNIAGTFLV | -0.30 -0.56 0.15 -0.12 0.01 0.02 | 0 of 18 |
| 33 | GFDLNEYGIS | VIYADGRRTFYADSVK | GNAAGTFDI | -0.47 0.10 -0.67 -0.91 -0.13 -0.12 | 0 of 18 |
| 34 | GFNLNEYGIS | VIYADGVRTFYTDDVK | GEVAGTFDL | -0.19 -0.83 -0.84 -0.89 -0.89 -0.75 | 0 of 18 |
| 35 | GFDLDEYGIS | VIYADGRRTFYADSVK | GNVAGTFDS | -0.18 -0.16 -0.46 -0.56 -0.11 -0.12 | 0 of 18 |
| 36 | GFDLNEYGIS | VIYADGKRTFYADSVK | GQAAGTFDS | -0.43 -0.42 -0.76 -0.80 -0.61 -0.58 | 0 of 18 |
| 37 | GFNLDEYGIS | VIYADGRRTFYADSVK | GQVAGTFLM | 0.29 -0.54 -0.53 -0.76 -0.41 -0.32 | 0 of 18 |
| 38 | GFNLNEYGIS | VIYADGRRTFYADSVK | GGFAGTFDV | -0.33 -0.34 -0.48 -0.26 -0.07 -0.43 | 0 of 18 |
| 39 | GFNLNEYGIS | VIYADGVRTFYADSVK | GQIAGTFIV | nd nd nd nd nd nd | 0 of 18 |
| 40 | GFDLNEYGIS | VIYADGRRTFYADSVK | GNQAGTFNS | -0.25 0.20 -0.13 -0.26 -0.25 0.13 | 1 of 18 (1.70) |